Source: BindingDB's records for PubMed 20126400 (University of Oklahoma, 2010)
pIC50, pKi: −log10 of the molar value.

Protein sequences, listed by entry. Tags and fused reporters are not part of them. Lines headed by an entry give the natural chain unless they say otherwise; changes in a name come on top.
UniProt P18089, whole entry: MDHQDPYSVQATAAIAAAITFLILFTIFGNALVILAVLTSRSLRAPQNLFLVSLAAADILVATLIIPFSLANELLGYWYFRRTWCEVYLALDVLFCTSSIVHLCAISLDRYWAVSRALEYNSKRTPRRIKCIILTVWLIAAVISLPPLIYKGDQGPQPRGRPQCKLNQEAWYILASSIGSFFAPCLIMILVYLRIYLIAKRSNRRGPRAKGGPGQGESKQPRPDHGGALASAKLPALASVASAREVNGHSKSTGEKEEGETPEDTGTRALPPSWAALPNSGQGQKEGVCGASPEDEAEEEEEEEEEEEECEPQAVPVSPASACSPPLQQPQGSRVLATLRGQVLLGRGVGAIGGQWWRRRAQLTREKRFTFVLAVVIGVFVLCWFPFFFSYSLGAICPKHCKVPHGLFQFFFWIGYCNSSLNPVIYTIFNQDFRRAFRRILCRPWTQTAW
UniProt P33535, whole entry: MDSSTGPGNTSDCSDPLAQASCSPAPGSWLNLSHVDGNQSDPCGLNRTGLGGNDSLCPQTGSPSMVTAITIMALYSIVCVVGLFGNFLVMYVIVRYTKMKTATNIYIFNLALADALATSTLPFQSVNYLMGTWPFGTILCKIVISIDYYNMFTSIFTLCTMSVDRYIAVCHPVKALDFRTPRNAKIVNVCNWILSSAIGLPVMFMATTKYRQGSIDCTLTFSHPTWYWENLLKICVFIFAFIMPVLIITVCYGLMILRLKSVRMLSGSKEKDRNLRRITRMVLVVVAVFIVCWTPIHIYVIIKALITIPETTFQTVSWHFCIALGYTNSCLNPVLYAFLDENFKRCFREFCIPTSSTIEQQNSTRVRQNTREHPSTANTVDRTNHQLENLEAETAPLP
UniProt P28566: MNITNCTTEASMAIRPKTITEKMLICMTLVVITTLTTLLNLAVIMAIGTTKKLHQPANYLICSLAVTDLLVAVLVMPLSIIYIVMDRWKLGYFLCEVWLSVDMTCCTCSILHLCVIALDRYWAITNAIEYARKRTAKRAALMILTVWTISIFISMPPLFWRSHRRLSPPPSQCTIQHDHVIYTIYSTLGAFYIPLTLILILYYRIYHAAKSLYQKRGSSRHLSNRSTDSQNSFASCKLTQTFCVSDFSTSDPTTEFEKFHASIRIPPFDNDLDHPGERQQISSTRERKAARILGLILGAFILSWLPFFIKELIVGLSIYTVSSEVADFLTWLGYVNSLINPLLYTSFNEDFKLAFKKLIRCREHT
UniProt P50406, whole entry: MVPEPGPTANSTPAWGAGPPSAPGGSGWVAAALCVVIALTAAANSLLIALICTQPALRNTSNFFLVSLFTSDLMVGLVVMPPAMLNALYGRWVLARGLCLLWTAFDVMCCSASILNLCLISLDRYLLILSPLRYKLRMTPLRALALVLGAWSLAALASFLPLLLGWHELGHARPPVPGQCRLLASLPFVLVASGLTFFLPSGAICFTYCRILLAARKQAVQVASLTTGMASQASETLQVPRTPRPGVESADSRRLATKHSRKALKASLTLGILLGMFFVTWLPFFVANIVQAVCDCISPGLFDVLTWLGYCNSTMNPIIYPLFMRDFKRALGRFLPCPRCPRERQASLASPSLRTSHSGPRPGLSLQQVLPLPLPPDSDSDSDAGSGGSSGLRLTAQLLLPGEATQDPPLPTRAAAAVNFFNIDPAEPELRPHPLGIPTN
UniProt P34969, whole entry: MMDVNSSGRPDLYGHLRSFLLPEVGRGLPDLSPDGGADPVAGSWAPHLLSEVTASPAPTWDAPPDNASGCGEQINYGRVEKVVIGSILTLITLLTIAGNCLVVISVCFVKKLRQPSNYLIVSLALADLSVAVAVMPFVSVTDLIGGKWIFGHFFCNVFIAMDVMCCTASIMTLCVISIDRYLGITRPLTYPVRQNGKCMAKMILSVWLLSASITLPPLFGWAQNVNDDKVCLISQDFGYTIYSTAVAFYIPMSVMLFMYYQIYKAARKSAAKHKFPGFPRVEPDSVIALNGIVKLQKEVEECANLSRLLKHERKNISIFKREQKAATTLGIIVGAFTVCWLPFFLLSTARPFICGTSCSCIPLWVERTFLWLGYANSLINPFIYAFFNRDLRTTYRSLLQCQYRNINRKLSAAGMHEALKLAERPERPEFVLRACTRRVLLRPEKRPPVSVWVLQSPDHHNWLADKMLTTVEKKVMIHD
UniProt P11229: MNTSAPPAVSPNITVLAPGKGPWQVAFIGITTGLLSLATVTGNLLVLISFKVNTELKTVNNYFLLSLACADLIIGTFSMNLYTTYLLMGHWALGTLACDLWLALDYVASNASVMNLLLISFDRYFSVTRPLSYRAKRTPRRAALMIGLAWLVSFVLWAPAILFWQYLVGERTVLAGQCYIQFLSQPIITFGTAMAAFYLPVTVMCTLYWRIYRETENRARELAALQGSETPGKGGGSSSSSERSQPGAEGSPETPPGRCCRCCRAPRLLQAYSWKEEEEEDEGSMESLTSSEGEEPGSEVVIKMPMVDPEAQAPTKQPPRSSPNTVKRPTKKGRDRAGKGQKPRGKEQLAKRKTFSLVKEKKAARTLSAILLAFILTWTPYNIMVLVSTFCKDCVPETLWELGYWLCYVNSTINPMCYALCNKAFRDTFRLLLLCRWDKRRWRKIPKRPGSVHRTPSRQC
UniProt P21917, whole entry: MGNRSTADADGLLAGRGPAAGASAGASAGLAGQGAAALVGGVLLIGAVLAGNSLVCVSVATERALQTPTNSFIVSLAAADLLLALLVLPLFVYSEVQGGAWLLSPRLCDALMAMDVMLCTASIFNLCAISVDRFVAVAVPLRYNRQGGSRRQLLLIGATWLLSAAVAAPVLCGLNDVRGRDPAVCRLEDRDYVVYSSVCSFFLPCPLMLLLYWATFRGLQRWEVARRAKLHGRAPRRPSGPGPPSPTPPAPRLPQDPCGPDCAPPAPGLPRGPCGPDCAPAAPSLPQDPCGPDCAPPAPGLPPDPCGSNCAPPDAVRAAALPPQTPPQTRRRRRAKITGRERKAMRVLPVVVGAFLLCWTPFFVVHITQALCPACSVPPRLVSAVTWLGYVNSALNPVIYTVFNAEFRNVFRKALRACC

Key:
[1] = target: Alpha-2B adrenergic receptor (Homo sapiens, UniProt P18089); test: Ray2010 Assay 74
[2] = target: T1, Mu-type opioid receptor (Rattus norvegicus, UniProt P33535); test: Ray2010 Assay 56
Description: DAGO forebrain .

[3] = target: T1, Mu-type opioid receptor; test: Ray2010 Assay 57
Description: thalamic membraines Pablo et al. 1998.

[4] = target: 5-hydroxytryptamine receptor 1E (Homo sapiens, UniProt P28566); test: Ray2010 Assay 74
[5] = target: 5-hydroxytryptamine receptor 6 (Homo sapiens, UniProt P50406); test: Ray2010 Assay 74
[6] = target: 5-hydroxytryptamine receptor 7 (Homo sapiens, UniProt P34969); test: Ray2010 Assay 74
[7] = target: Muscarinic acetylcholine receptor M1 (Homo sapiens, UniProt P11229); test: Ray2010 Assay 74
[8] = target: D(4) dopamine receptor (Homo sapiens, UniProt P21917); test: Ray2010 Assay 74

Question: With `CCOc1cc(OC)c(CC(C)N)cc1OC` (centres undefined) as the compound, how does the pKi [1] read?
Answer: The pKi was under 5.00.

Question: `CC[C@H]1C[C@@H]2C[C@H]3c4[nH]c5ccc(OC)cc5c4CCN(C2)[C@@H]13` was tested. Which pIC50 [2] did it give?
Answer: The pIC50 was 4.59.

Question: And the pKi [3]?
Answer: Its pKi is 5.42.

Question: How did the pKi [1] turn out when `CCSc1cc(OC)c(CC(N)CC)cc1OC` (centres undefined) [1-(4-Ethylsulfanyl-2,5-dimethoxy-benzyl)-propylamine] was run?
Answer: The pKi was under 5.00.

Question: Which results are given for `CCSc1cc(OC)c(CC(C)N)cc1OC` (centres undefined) [2-(4-Ethylsulfanyl-2,5-dimethoxy-phenyl)-1-methyl-ethylamine]?
Answer: pKi [4]: 5.51; pKi [1]: 5.53; pKi [5]: 5.52

Question: `NCCc1c2c(c(Br)c3c1OCC3)OCC2` [2-(8-Bromo-2,3,6,7-tetrahydro-benzo[1,2-b;4,5-b']difuran-4-yl)-ethylamine] was tested. Which pKi [6] did it give?
Answer: The pKi was 6.22.

Question: And the pKi [1]?
Answer: The pKi was 6.20.

Question: And the pKi [7]?
Answer: The pKi was 6.19.

Question: How did the pKi [6] turn out when `CCSc1cc(OC)c(CCN)cc1OC` [2C-T-2] was run?
Answer: Its pKi is 6.01.

Question: And the pKi [1]?
Answer: The pKi was 6.01.

Question: `COc1ccc2[nH]cc(CCN(C)C(C)C)c2c1` [5-meo-mipt] was tested. Which pKi [1] did it give?
Answer: Its pKi is 5.77.

Question: `CN(C)CCc1c[nH]c2cc(F)ccc12` [6-f-dmt] was tested. Which pKi [1] did it give?
Answer: Its pKi is 6.59.

Question: With `COc1cc(OC)c(OC)cc1CC(C)N` (stereo not drawn) [(+/-)1-Methyl-2-(2,4,5-trimethoxy-phenyl)-ethylamine] as the compound, how does the pKi [1] read?
Answer: The pKi was under 5.00.

Question: How did the pKi [8] turn out when `C[C@@H]1C[C@H](C)N1C(=O)C1C=C2c3cccc4[nH]cc(c34)C[C@H]2N(C)C1` (stereo partly drawn) [cis-2a] was run?
Answer: Its pKi is 7.13.

Question: How did the pKi [1] turn out when `CC(C)N(CCc1c[nH]c2ccccc12)C(C)C` [dipt] was run?
Answer: Its pKi is 5.54.

Question: `C[C@@H]1C[C@@H](C)N1C(=O)C1C=C2c3cccc4[nH]cc(c34)C[C@H]2N(C)C1` (some centres undefined) [rr-2b] was tested. Which pKi [8] did it give?
Answer: Its pKi is 6.77.

Question: `C[C@@H]1C[C@@H](C)N1C(=O)C1C=C2c3cccc4[nH]cc(c34)C[C@H]2N(C)C1` (some centres undefined) [ss-2c] was tested. Which pKi [8] did it give?
Answer: The pKi was 7.02.
